In this assay the target is T1, Ex-FABP (Gallus gallus, UniProt P21760).
T1 construct: made in house; host or cells: E. coli K-12 BW25113 ΔentB::kan (JW0587) (λDE3), pET21a, periplasmic secretion
In kind it is binding, chicken. To be noted: ITC, TBS pH 7.4, 30°C, 5 μM lipocalin. Here is the method: Experiments were carried out with a GE Healthcare Microcal VP-ITC microcalorimeter according to the manufacturer’s guidelines (Operating Instructions 28-9639-79 AA). The device consisted of a motorized injection syringe, in which the ligand was loaded, with two adiabatic cells set at 30 °C. The left cell was filled with the reference (TBS with 1.3% DMSO), whereas the right cell was filled with 5 μM lipocalin protein dissolved in the same buffer. […] Samples were degassed and pre-equilibrated at the desired temperature using a GE MicroCal ThermoVac degassing station before loading into the syringe, sample cell and reference cell.

Protein sequences, listed by entry. Tags and fused reporters are not part of them. Residues count along the entry.
UniProt P21760, 21-178: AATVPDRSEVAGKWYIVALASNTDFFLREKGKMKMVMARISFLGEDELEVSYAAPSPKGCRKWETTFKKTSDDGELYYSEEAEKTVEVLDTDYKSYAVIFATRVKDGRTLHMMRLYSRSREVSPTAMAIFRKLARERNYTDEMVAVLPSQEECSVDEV

For 1 substance, Kd results are on record in PMC7242566, “The Three Lipocalins of Egg-White: Only Ex-FABP Inhibits Siderophore-Dependent Iron Sequestration by Salmonella Enteritidis” (Frontiers in Microbiology, 2020).

With salmochelin [apo-Sal (or DGE)], the Kd result is on record as “Under threshold”.
